# Values quoted from earlier work as cited in US20090196930A1, “AEROSOLIZED NITRITE AND NITRIC OXIDE -DONATING COMPOUNDS AND USES THEREOF” (Aires Pharmaceuticals, Inc., priority 2007, published 2009).
# Conditions: NAL MDI, 2 mg per puff, healthy volunteers; cited from earlier work
substance,measurement,value
L-lysine-N-acetylcysteinate [NAL],fraction of dose able to reach the lungs,approximately 10%
